Measurements: patent US4880014A, “Method for determining therapeutic drug dosage using bioelectrical resistance and reactance measurements” (priority 1988, dated 1989)

Conditions: human, in vivo, iv
Description: Twelve human subjects participated in the following study. The resistance (R) and the reactance (Xc) of each patient was measured using a four-terminal impedance plethysmograph. During the measurement, the subjects were placed in the supine position on an insulative surface. The electrodes were attached in the following manner. Those areas of the patient's skin where the electrodes were to be connected were cleaned thoroughly with alcohol. […]
The elimination rate constant was determined by nonlinear regression analysis of the serum concentration data for each patient using Micrononlin (Micrononlin, Elite Software, box 11223. Pittsburgh. PA 15238).
Volume of distribution was calculated by the Sawchuk-Zaske method.
Calculation of (K) and (V) from the measured serum concentration data was performed as were the dosage regimens using the measured serum concentration data by the equations of Sawchuk and Zaske which will be known to those skilled in the art.

- Volume of Distribution (V), Meas., mean: .345 kg⁻¹
Substance: gentamicin
